Test results reported in US20050175597A1 (priority 2002, published 2005).

System: B. subtilis (ATCC 6633)

CC[C@H]1OC(=O)[C@H](C)[C@@H](O[C@H]2C[C@@](C)(OC)[C@@H](O)[C@H](C)O2)[C@H](C)[C@@H](O[C@@H]2O[C@H](C)C[C@H](N(C)C)[C@H]2O)[C@](C)(O)C[C@@H](C)C(=O)[C@H](C)[C@@H](O)[C@]1(C)O [Erythromycin + H2O, Erythromycin]
reduction in erythromycin activity: 92%
